The record followed here is published antibiotic growth screens (doi:10.1038/s41589-023-01349-8).

The other results are listed elsewhere or left out.

The test system of this assay is A. baumannii ATCC 17978. Put plainly: relative growth (fraction of control); higher = less inhibition. To be noted: 50 µM.
`Nc1ccc(Oc2ccccc2)cc1` displayed a relative growth of 0.844.

In turn, `C=c1cc(C)ccc1=C1NN=C(N)O1` showed a relative growth of 1.01. The result for `COc1ccc(S(=O)(=O)N[C@@H]2CC[C@@H](CC(=O)N3CCN(c4ccccc4)CC3)O[C@@H]2CO)cc1` reads 0.993; that for `COc1cccc(S(=O)(=O)N(C)C[C@H]2OCc3cnnn3CCCC(=O)N([C@H](C)CO)C[C@@H]2C)c1`, 1.16. Consider `CCCCC(CC)CN1CN(CC(CC)CCCC)CC(C)(N)C1` (centres undefined), for which the relative growth came out at 0.154.

Consider `C[C@@H]1CN([C@@H](C)CO)S(=O)(=O)c2ccc(C3=CCCC3)cc2O[C@@H]1CN(C)C(=O)c1cnccn1`, for which the relative growth was 0.976. To `CC(=O)OCC1=C(C(=O)[O-])N2C(=O)[C@@H](NC(=O)Cc3cccs3)[C@H]2SC1.[Na+]` belongs 0.954; to `O=C(C[C@@H]1CC[C@@H](NS(=O)(=O)c2ccc(F)cc2)[C@H](CO)O1)N1CCC(Cc2ccccc2)CC1`, 0.684. As for `O=C(C[C@@H]1C=C[C@H](NC(=O)Nc2cc(F)ccc2F)[C@H](CO)O1)NCCCN1CCOCC1`, the relative growth was found to be 1.02. To `O=C(C[C@H]1CC[C@@H]2[C@H](COC[C@H](O)CN2S(=O)(=O)c2ccccc2)O1)N1CCOCC1` belongs 1.06; to `COC(=O)c1cn(-c2cccc(N)c2)nn1`, 1.09; to `CN(C)CCCN1c2ccccc2CCc2ccccc21.Cl`, 0.905. The result for `COc1ccccc1S(=O)(=O)N[C@H]1CC[C@H](CCNC(=O)C2CC2)O[C@H]1CO` reads 1.2; that for `C=CCC[C@@H](Cc1ccc(F)cc1)C(=O)O[C@@H](CNC(=O)[C@H](CC=C)CC(=O)N(CCO)Cc1ccccc1)c1ccccc1`, 1.2. To `O=C(N/N=C/[C@H](O)[C@@H](O)[C@H](O)[C@H](O)CO[C@H]1O[C@H](CO)[C@H](O)[C@H](O)[C@H]1O)c1ccccn1` belongs 1.08; to `O=C(N[C@H]1C=C[C@H](CC(=O)N2CCOCC2)O[C@@H]1CO)c1ccccn1`, 1.01. As to `O=C(NCc1ccncc1)C(=O)NC[C@H]1OCCN1C(=O)c1ccc(Cl)cc1`, the relative growth was 0.897. The compound `C[C@H]1CN([C@@H](C)CO)S(=O)(=O)c2ccc(C#CC3CCCC3)cc2O[C@H]1CN(C)Cc1cncnc1` yielded a relative growth of 0.768. `CCOC(=O)[C@H]1CN(C(C)(C)C)C(=O)C1=O` showed a relative growth of 0.959. To `CN(C)CC(=O)N[C@@H]1CC[C@@H](CCNC(=O)C2CC2)O[C@H]1CO` belongs 1.01; to `O=C(NO)c1cccc(C(=O)N/N=C/[C@H](O)[C@@H](O)[C@H](O)CO)c1`, 1.01. To `COc1ccc([Si](C)(C)[C@H]2[C@H](CC(=O)N(CCO)Cc3ccccc3)O[C@@]3(C(=O)N(Cc4ccc(N5CCC5=O)cc4)c4ccccc43)[C@@H]2C)cc1` belongs 1.24. As to `O=C(N[C@@H]1CC[C@@H](CCNS(=O)(=O)c2ccc(F)cc2)O[C@H]1CO)C1CC1`, the relative growth came out at 1.11. The result for `S=C(NCCCc1cnc[nH]1)NCCCN(Cc1ccc(Cl)c(Cl)c1)c1ccc(Br)cn1` reads 0.988; that for `O=C(C[C@H]1CC[C@H]2[C@@H](COC[C@@H](O)CN2S(=O)(=O)c2cccc(Cl)c2)O1)N1CCOCC1`, 0.956; that for `NC1(C(=O)O)CCC1`, 1.04.

`N=c1sccn1CC(=O)O` yielded a relative growth of 0.75. The result for `Cc1cccc(S(=O)(=O)N2C[C@@H](O)COC[C@@H]3O[C@@H](CC(=O)NCc4ccc5c(c4)OCO5)CC[C@H]32)c1` reads 0.899; that for `O=C(C[C@@H]1CC[C@@H](NS(=O)(=O)c2ccc(F)cc2)[C@@H](CO)O1)NCc1ccc(Cl)c(Cl)c1`, 0.949; that for `COc1cccc(S(=O)(=O)N[C@H]2CC[C@@H](CCn3cc(-c4ccccc4OC)nn3)O[C@H]2CO)c1`, 0.969. The result for `COc1ccc(Cc2cnc(N)nc2N)cc1OC` reads 0.445. The result for `NCCCC[C@@H]1NC(=O)[C@H]2C[C@@H](C(=O)NCc3ccc(F)cc3)[C@@H](c3cccc(OCCO)c3)N2C1=O` reads 1.18; that for `COC(=O)c1cc(S(=O)(=O)N2CCOCC2)cn1C`, 1.08. `C[C@H](CO)N1C[C@H](C)[C@@H](CN(C)C(=O)c2ccccc2F)Oc2cc(C#CCN(C)C)ccc2S1(=O)=O` gave a relative growth of 1.1.

As to `CC1(C)S[C@@H]2[C@H](NC(=O)[C@H](NC(=O)N3CCNC3=O)c3ccccc3)C(=O)N2C1C(=O)[O-].[Na+]` (some centres undefined), the relative growth was determined as 0.715. To `COc1cccc(S(=O)(=O)Nc2ccc3c(c2)[C@H]2C[C@@H](CC(=O)NCc4ccccc4F)O[C@@H](CO)[C@H]2O3)c1` belongs 0.951; to `CC(=O)[C@H]1CCC2C3CCC4=CC(=O)CC[C@]4(C)C3CC[C@@]21C` (some centres undefined), 1.08. The result for `O=C(CN1CCOCC1)N[C@@H]1CC[C@@H](CCn2cc(C3CCCC3)nn2)O[C@@H]1CO` reads 0.934. The result for `CN1C(C)(C)CCCC1(C)C.O=C(O)C(O)C(O)C(=O)O` reads 1.02; that for `COC(=O)c1nc[nH]c1C(=O)OC`, 0.989. `CC(=O)N1CCN(c2ncnc3nc[nH]c23)CC1`: the relative growth was found to be 1.04. To `O=C(Nc1ccc(C(=O)O)c(O)c1)c1ccccc1` belongs 0.974; to `CCCCOC(=O)c1ccc(N)cc1`, 1.01. The result for `O=C(CCNc1n[nH]c(=O)[nH]c1=O)N1CCOCC1` reads 1.07.

In the case of `O=S1(=O)C[C@@H]2NC(=S)N[C@@H]2C1`, the relative growth was 1.17. The result for `O=CN[C@H](Cc1ccccc1)C(=O)O` reads 1.06. Take `C[C@@H]1CN([C@H](C)CO)C(=O)c2cc(C#CCc3ccccc3)cnc2O[C@H]1CN(C)C(=O)Cc1cccnc1`: the relative growth came out at 1.03.

Regarding `O=C(C[C@H]1CC[C@@H]2[C@H](COC[C@@H](O)CN2S(=O)(=O)c2ccccc2)O1)N1CCOCC1`, the relative growth was found to be 0.937. The result for `CN(C)CC(=O)N[C@H]1CC[C@@H](CCn2cc(CN(C)C)nn2)O[C@@H]1CO` reads 0.963. The result for `CN(C)CCCCNC(=O)[C@H]1C[C@H]2C(=O)N[C@@H](CCCC[N+](C)(C)C)C(=O)N2[C@H]1c1cccc(OCCO)c1` reads 1.19; that for `CO[C@@H]1CN(C)C(=O)c2ccc(NS(=O)(=O)c3cn(C)cn3)cc2OC[C@H](C)N(CC2CC2)C[C@H]1C`, 0.957. Compound `C=CCOC(=O)[C@H]1[C@@H]2C(=O)O[C@@H](c3ccccc3)[C@@H](c3ccccc3)N2[C@@H](c2ccc(OCCOC(=O)[C@@H]3C[C@@H]4C(=O)N[C@@H](CC(C)C)C(=O)N4[C@@H]3c3cccc(OCCO)c3)cc2)[C@]12C(=O)Nc1ccccc12` gave a relative growth of 0.896.

The compound `C[C@@H]1CN([C@H](C)CO)S(=O)(=O)c2ccc(C#CC3(O)CCCC3)cc2O[C@H]1CN(C)C(=O)Nc1ccc(F)cc1` came in with a relative growth of 1.03. To `CC[C@H]1OC(=O)[C@H](C)[C@@H](O[C@H]2C[C@@](C)(OC)[C@@H](O)[C@H](C)O2)[C@H](C)[C@@H](O[C@@H]2O[C@H](C)C[C@H](N(C)C)[C@H]2O)[C@](C)(OC)C[C@@H](C)C(=O)[C@H](C)[C@@H](O)[C@]1(C)O` belongs 0.167. `CO[C@@H]1CN(C)C(=O)c2ccc(NC(=O)Nc3cccc(Cl)c3)cc2OC[C@H](C)N(C(=O)Nc2c(C)noc2C)C[C@@H]1C`: the relative growth came to 1.07. To `CC(C)CNC(=O)C(=O)NCc1ccccn1` belongs 1.01. The result for `CC(=O)N[C@@H](Cc1ccccc1)C(=O)NN` reads 1.08. The result for `[N-]=[N+]=Nc1ccccc1[C@@H]1OC(c2ccc(OCCCO)cc2)=N[C@]1(CCS(=O)(=O)c1ccccc1)C(=O)NC[C@@H](O)CO` reads 0.931. Take `COC(=O)C[C@H]1CC[C@@H](N)[C@H](CO)O1`: the relative growth stood at 0.92. Regarding `O=C1c2ccccc2-c2c(-c3ccccc3)nc3ccccc3c21`, the relative growth was 1.01. To `COC(=O)C(CCCN1C(=O)c2ccccc2C1=O)(NC(C)=O)c1nn[nH]n1` (centres undefined) belongs 1.01; to `CCCCC1=NC2(CCCC2)C(=O)N1Cc1ccc(-c2ccccc2-c2nnn[nH]2)cc1`, 1.02.

`CC(C)NCC(O)c1ccc(NS(C)(=O)=O)cc1.Cl` (centres undefined) showed a relative growth of 0.88. To `CO/N=[N+](\[O-])N1CCC[C@H](C(N)=O)C1` belongs 0.954; to `CO[C@H]1CN(C)C(=O)c2ccc(NC(=O)C3CC3)cc2OC[C@H](C)N(C(=O)C2CCOCC2)C[C@H]1C`, 0.936. The result for `O=C(C[C@H]1C[C@@H]2c3cc(NS(=O)(=O)c4ccc(F)cc4)ccc3O[C@@H]2[C@@H](CO)O1)N1CCOCC1` reads 0.95. For the compound `C[C@H]1COC2=C1C(=O)C(=O)c1c2ccc2c1CCCC2(C)C`, the relative growth turned out to be 1.07. The result for `NC(=O)Cc1cccc(C(=O)c2ccccc2)c1N` reads 0.912.

`COc1ccccc1CNC(=O)C[C@@H]1C[C@H]2c3cc(NC(=O)c4cccnc4)ccc3O[C@H]2[C@H](CO)O1` displayed a relative growth of 0.983. `COc1cccc(S(=O)(=O)Nc2ccc3c(c2)[C@H]2C[C@H](CC(=O)NCCc4ccccc4)O[C@H](CO)[C@H]2O3)c1` showed a relative growth of 0.945. To `NNC(=O)c1cc2ccccc2[nH]1` belongs 1.15; to `COc1ccc(-c2nc3cc(C4=NNC(=O)CC4C)ccc3[nH]2)cc1` (centres undefined), 1.05; to `CC(=O)N(C)C[C@H]1Oc2ncc(C#C[C@@H](C)O)cc2C(=O)N([C@@H](C)CO)C[C@@H]1C`, 1.03. To `O=C(CCCl)NCc1ccccc1` belongs 1.04; to `COCC#Cc1ccc2c(c1)O[C@H](CN(C)S(=O)(=O)c1ccc(F)cc1)[C@@H](C)CN([C@H](C)CO)S2(=O)=O`, 0.86; to `CNS(=O)(=O)Cc1ccc2[nH]cc(CCN(C)C)c2c1`, 1.22. The result for `CCn1nnc2c(=S)nc[nH]c21` reads 0.837. `O=c1c(O)c(-c2ccc(O)c(O)c2)oc2cc(O)ccc12` yielded a relative growth of 0.935. In turn, `NS(=O)(=O)c1cc2c(cc1Cl)N=CNS2(=O)=O` registered a relative growth of 0.99.

`O=C1O[C@@H](c2ccccc2)[C@@H](c2ccccc2)N2[C@@H](c3ccc(O)cc3)[C@]3(C(=O)Nc4ccccc43)[C@@H](C(=O)NC[C@H](O)c3ccccc3)[C@H]12`: the relative growth came out at 0.963. To `O=c1cn[nH]c(NC2CCCC2)n1` belongs 1.01; to `C=C(C)[C@]1(O)OC(=O)C=C1OC`, 0.951.

As to `C/C=C/c1ccc2c(c1)O[C@@H](CN(C)S(=O)(=O)c1ccc(C)cc1)[C@@H](C)CN([C@@H](C)CO)S2(=O)=O`, the relative growth was 1.03. To `CCOC(=O)[C@H](CCc1ccccc1)N[C@@H](C)C(=O)N1[C@H](C(=O)O)C[C@@H]2CCC[C@@H]21` belongs 0.865.
